{"sequences": {"note": "Protein sequences, listed by entry. Tags and fused reporters are not part of them. Residues count along the entry.", "UniProt A0ACM8Q262, 1-400": "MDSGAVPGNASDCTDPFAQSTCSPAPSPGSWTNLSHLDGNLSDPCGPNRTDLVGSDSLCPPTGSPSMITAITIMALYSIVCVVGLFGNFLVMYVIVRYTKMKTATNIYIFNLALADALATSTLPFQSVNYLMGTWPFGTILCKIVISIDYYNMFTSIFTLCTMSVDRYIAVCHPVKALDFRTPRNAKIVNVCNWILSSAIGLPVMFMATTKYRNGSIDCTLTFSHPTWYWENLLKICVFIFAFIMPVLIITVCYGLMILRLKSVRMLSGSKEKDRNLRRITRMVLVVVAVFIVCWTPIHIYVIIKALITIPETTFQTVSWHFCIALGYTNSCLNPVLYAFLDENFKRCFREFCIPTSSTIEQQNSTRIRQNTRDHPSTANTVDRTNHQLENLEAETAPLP"}, "source": "patent US7563899B2", "about": "“(S)-N-methylnaltrexone” (Progenics Pharmaceuticals, Inc., priority 2005, dated 2009)", "biological_target": "μ-opioid receptors in the guinea pig ileum (Cavia porcellus, UniProt A0ACM8Q262)", "assay": "Guinea pig ileum bioassay, test for antagonist activity (against DAMGO-induced response)", "conditions": "percent of control response to DAMGO, mean, n=2", "method": "Experimental Conditions. Segments of guinea pig terminal ileum were suspended in 20-ml organ baths filled with an oxygenated (95% O2 and 5% CO2) and pre-warmed (37° C.) physiological salt solution of the following composition (in mM): NaCl 118.0, KCl 4.7, MgSO4 1.2, CaCl2 2.5, KH2PO4 1.2, NaHCO3 25.0 and glucose 11.0 (pH 7.4). Additional experimental conditions were as described in Hutchinson et al. (1975) Brit. J. Pharmacol., 55: 541-546.\nIndomethacin (1 μM), nor-binaltorphimine (0.01 μM), methysergide (1 μM), ondansetron (10 μM) and GR113808 (0.1 μM) were also present throughout the experiments to prevent prostanoid release and to block the k-opioid, 5-HT2, 5-HT3 and 5-HT4 receptors, respectively. The tissues were connected to force transducers for isometric tension recordings. They were stretched to a resting tension of 1 g then allowed to equilibrate for 60 min during which time they were washed repeatedly and the tension readjusted. Thereafter, they were stimulated electrically with pulses of minimal intensity to trigger maximal contractions and 1 ms duration, delivered at 0.1 Hz by a constant current stimulator.\nTest for antagonist activity. […] Each concentration was left in contact with the tissues until a stable response was obtained or for a maximum of 15 min.\nAnalysis and Expression of Results. The parameter measured was the maximum change in the amplitude of the electrically-evoked twitch contractions induced by each compound concentration.", "data": [{"smiles": "C=CCN1CC[C@]23c4c5ccc(O)c4O[C@H]2C(=O)CC[C@@]3(O)[C@H]1C5", "note": "[naloxone, reference compound]", "values": [{"measurement": "Response to DAMGO (1.0E−07 M) in the presence of the compound", "setting": "compound 1.0E−07 M", "result": "−7", "unit": "%"}, {"measurement": "Response to DAMGO (1.0E−07 M) in the presence of the compound", "setting": "compound 2.0E−08 M", "result": 43, "unit": "%"}, {"measurement": "Response to DAMGO (1.0E−07 M) in the presence of the compound", "setting": "compound 5.0E−09 M", "result": 83, "unit": "%"}]}]}
